# Data as given in EP4775209A1 (Ascentawits Pharmaceuticals, Ltd., priority 2023, dated 2025).
# Test: Toxicokinetics (QD×5/21 Days) in monkeys
# Settings: AST-3424 0.1, 0.2, 0.4/0.3 mg/kg 30-minute i.v. infusion QD×5; metabolite time after the start of administration; approximate
compound,measurement,value
C[C@H](OP(=O)(N1CC1)N1CC1)c1ccc([N+](=O)[O-])c(Oc2cccc(C(=O)N(C)C)c2)c1 [AST-3424],"Tmax, time to peak concentration",immediately after the end of administration
